Measurements taken from ChEMBL document CHEMBL4350957, “Use of the 4-Hydroxytriazole Moiety as a Bioisosteric Tool in the Development of Ionotropic Glutamate Receptor Ligands” (J Med Chem, 2019).

Sequences of proteins named here, by UniProt entry; tags and fusion partners are left off. A change or cut given only in a name is not applied to a line headed by its entry.
UniProt P19491: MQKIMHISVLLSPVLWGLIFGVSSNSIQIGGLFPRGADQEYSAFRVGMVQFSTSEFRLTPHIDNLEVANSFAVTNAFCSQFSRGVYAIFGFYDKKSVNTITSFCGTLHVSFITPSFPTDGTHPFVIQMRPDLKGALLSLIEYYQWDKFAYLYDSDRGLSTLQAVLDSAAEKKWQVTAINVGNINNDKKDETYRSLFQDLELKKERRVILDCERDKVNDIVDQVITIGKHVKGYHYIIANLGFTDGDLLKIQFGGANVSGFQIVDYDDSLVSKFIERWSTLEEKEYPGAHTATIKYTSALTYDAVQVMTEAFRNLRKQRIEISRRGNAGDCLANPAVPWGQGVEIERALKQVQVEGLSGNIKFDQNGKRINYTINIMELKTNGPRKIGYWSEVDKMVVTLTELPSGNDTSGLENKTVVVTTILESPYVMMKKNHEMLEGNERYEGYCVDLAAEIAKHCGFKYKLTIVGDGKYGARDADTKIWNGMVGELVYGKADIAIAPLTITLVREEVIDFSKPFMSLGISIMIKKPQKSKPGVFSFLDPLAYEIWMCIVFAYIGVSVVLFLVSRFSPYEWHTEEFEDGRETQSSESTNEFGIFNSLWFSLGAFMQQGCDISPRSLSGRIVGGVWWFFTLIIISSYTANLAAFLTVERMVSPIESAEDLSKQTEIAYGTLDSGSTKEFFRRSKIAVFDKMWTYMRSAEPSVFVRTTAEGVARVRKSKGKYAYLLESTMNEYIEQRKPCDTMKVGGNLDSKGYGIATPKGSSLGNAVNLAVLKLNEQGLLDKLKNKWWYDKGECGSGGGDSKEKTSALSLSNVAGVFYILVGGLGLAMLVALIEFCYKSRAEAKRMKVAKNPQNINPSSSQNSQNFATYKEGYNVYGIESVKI

Molecular target: Glutamate receptor 2 (Rattus norvegicus, UniProt P19491)
Assay: biochemical

NC(Cc1c(O)noc1-c1nnn(Cc2ccccc2)n1)C(=O)O (stereo unspecified)
Ki: 750 nM
